# Test results taken from patent US9012606B2, “In vivo half life increased fusion protein or peptide maintained by sustained in vivo release, and method for increasng in vivo half-life using same” (Alteogen, Inc., priority 2009, dated 2015).
# B1: human growth hormone/alpha-1 antitrypsin monovariant fusion (protein)
# chain: EDPQGDAAQKTDTSHHDQDHPTFNKITPNLAEFAFSLYRQLAHQSNSTNIFFSPVSIATAFAMLSLGTKADTHDEILEGLNFNLTEIPEAQIHEGFQELLRTLNQPDSQLQLTTGNGLFLSEGLKLVDKFLEDVKKLYHSEAFTVNFGDTEEAKKQINDYVEKGTQGKIVDLVKELDRDTVFALVNYIFFKGKWERPFEVKDTEEEDFHVDQVTTVKVPMMKRLGMFNIQHCKKLSSWVLLMKYLGNATAIFFLPDEGKLQHLENELTHDIITKFLENEDRRSASLHLPKLSITGTYDLKSVLGQLGITKVFSNGADLSGVTEEAPLKLSKAVHKAVLTIDEKGTEAAGAMFLEAINMSIPPEVKFNKPFVFLMIDQNTKSPLFMGKVVNPTQKGGGGS[sequence of about 200 residues omitted]
# modifications: T109 [alpha-1AT(P357N)/hGH]
# notes: hGH fused to C-terminus of alpha-1 antitrypsin monovariant P357N
# Columns and labels:
# trypsin = biological target: T1, trypsin (Bos taurus, UniProt P00760); assay: Inhibitory activity against trypsin; assay type: biochemical; conditions: trypsin and fusion 10 nM each, 1 hr room temperature
# T1 construct: gene PRSS1
# T1 sequence (P00760 24-246): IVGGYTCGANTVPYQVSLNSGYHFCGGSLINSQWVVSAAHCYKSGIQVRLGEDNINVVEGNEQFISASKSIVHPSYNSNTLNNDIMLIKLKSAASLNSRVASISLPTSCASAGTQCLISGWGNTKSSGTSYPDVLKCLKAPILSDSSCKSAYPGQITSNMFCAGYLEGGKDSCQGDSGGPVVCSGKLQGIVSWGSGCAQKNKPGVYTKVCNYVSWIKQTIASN
# Method: (§1) The human growth hormone/alpha-1 antitrypsin fusion [T109wt: α1AT/hGH] prepared in Example 1 and the human growth hormone/alpha-1 antitrypsin monovariant fusion [T109: α1AT(P357N)/hGH] prepared in Example 1 were separately mixed with trypsin. Trypsin and the fusions were used at a concentration of 10 nM, respectively. After being incubated at room temperature for 1 hr, the mixture was reacted with 0.2 mM of the substrate N-Benzoyl-Val-Gly-Arg p-nitroanilide hydrochloride (Sigma, U.S.A.), followed by measuring absorbance at 405 nm. Trypsin unit was set to be the concentration of substrate causing a change in absorbance of 0.001 and the enzyme activity was expressed as units/mg trypsin. For comparison, trypsin was used as a control.
# [1] = biological target: T2, human neutrophil elastase (Homo sapiens, UniProt P08246); assay: Inhibitory activity against human neutrophil elastase; assay type: biochemical; conditions: elastase and fusion 40 nM each, 1 hr room temperature
# T2 sequence (P08246 30-267): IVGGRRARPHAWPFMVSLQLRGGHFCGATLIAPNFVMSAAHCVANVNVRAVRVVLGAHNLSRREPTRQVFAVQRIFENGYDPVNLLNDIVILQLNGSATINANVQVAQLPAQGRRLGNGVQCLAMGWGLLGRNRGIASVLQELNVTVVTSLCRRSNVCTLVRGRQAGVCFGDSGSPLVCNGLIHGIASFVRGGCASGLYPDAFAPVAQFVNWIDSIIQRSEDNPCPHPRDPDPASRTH
# Method: as §1, with “with human neutrophil elastase. The elastase” for “with trypsin. Trypsin”, “of 40” for “of 10”, “with 1” for “with 0.2”, “substrate MeOSuc-AAPV-pNA (Santa Cruz Biotechnology, Inc.,” for “substrate N-Benzoyl-Val-Gly-Arg p-nitroanilide hydrochloride (Sigma,”, “nm. Human neutrophil elastase” for “nm. Trypsin”, “units/mg elastase.” for “units/mg trypsin. For comparison, trypsin was used as a control.”
# [2] = In vivo activity: body weight change in pituitary gland-removed rats; set-up: species or system Sprague-Dawley rats; conditions: subcutaneous 18 μg per rat every day, day 7
# Method: Pituitary gland-removed Sprague-Dawley rats were used as experimental animals and divided into three groups of seven. To the hypophysectomyzed Sprague-Dawley rats, the human growth hormone/alpha-1 antitrypsin monovariant fusion [T109: α1AT(P357N)/hGH] prepared in Example 2 and human growth hormone (Eutropin, LG Life Sciences Ltd, Korea) were subcutaneously injected at doses of 18 μg and 5 μg per rat, respectively, every day. For a control, PBS was used. The rats were weighed every day after being injected.
# [3] = tested on: rat lymphoma cell line (NB2 cell); assay: In vitro activity in NB2 cells (MTS method); assay type: cell-based; conditions: 48 hrs
# Method: The rat lymphoma cell line (NB2 cell) was maintained in RPMI1640 supplemented with 10% HS (Horse serum), 10% FBS, 2-mercaptoethanol and antibiotics at 37° C. under a 5% CO2 condition. For 24 hrs before experiment, NB2 cells were incubated in RPMI 1640 supplemented with 10% HS. Thereafter, the NB2 cells were washed once with 1×DPBS (Dulbecco's Phosphate Buffered Saline), and plated at a density of 2×10^4 cells/100 μL/well in 5% HS-supplemented RPMI 1640 in 96-well plates (Corning, U.S.A.) with final volume of 100 μL. A series of concentrations of the samples were added in an amount of 20 μL to each well of the 96-well plates, followed by incubation at 37° C. for 48 hrs under a 5% CO2 condition. Subsequently, 20 μL of an MTS solution (Promega, U.S.A.) was added to each well of the 96-well plates and allowed to react at 37° C. for 3 hrs under a 5% CO2 condition. The reaction was terminated by adding 20 μL of 10% SDS (sodium dodecyl sulfate) to each well. Absorbance was measured at 490 nm using a VersaMax microplate reader (Molecular Device, U.S.A.).
# [4] = Pharmacokinetics of hGH and hGH/alpha-1 antitrypsin fusions (serum ELISA); assay type: in vivo; conditions: Sprague-Dawley rats, subcutaneous, 720 μg/kg
# Method: An anti-human growth hormone monoclonal antibody (Medix Biochemica, Finland) was diluted to a concentration of 1-5 μg/mL in phosphate buffered saline (PBS) and the dilution was aliquoted in an amount of 100 μL/well onto a 96-well plate (Nunc, Denmark) and incubated at room temperature for 15-18 hrs. After the antibody remaining suspended was removed, PBS containing 1% bovine serum albumin was plated in an amount of 250 μL/well and incubated at room temperature for 2 hours. The plates were washed three times with wash buffer (0.05% Tween 20, PBS) and the solution was aspirated. Samples were diluted in PBS containing 1% bovine serum albumin and added to the 96-well plates before incubation at room temperature for 2 hrs. […] To each well was added 100 μL of 1 M sulfuric acid to terminate the reaction, followed by measuring absorbance at 450 nm on a VersaMax microplate reader (Molecular Device, U.S.A.). Values for each sample were calculated by regression analysis after a standard curve was plotted for a reference material.
# Sprague-Dawley rats were used as experimental animals and three of them were administered with human growth hormone while five rats were assigned to each of the fusion-administered groups. […] Each sample was analyzed in the same manner as the enzyme immunoassay of Test Example 1.
molecule,measurement,setting,value
B1,Ka (association equilibrium constant) with trypsin,trypsin,about 8.0×10^6 M^−1
same,Ka with human neutrophil elastase,[1],about 1.4×10^7 M^−1
same,weight gain,[2],~9.4%
same,EC50,[3],0.181 nM
same,serum half-life (t1/2),[4],5.4 h
same,time to peak serum concentration (Tmax),[4],12 h
